From US10557853B2 (priority 2012, dated 2020)

Test system: serum proteins (lysozyme, PDGF-BB, FGF-21, fibrinogen, transferrin, HSA)
Details: 1-2 μM serum proteins

Row | Compound | fluorescence response to a large excess of other proteins
1 | C=C(CC)C(=O)c1ccc(OCC(=O)NCCCn2cc(CNC(=O)OCCCN3C=C/C(=C\c4sc5ccccc5[n+]4CCCOC(=O)NCc4cn(CCCNC(=O)COc5ccc(C(=O)C(=C)CC)c(Cl)c5Cl)nn4)c4ccccc43)nn2)c(Cl)c1Cl [sensor 14] | do not respond
2 | O=C(CCCCC1SCC2NC(=O)NC21)NCCOCCOCCNC(=O)CCN1C=C/C(=C\c2sc3ccccc3[n+]2CCC(=O)NCCOCCOCCNC(=O)CCCCC2SCC3NC(=O)NC32)c2ccccc21.[I-] (stereo not shown) [sensor 34] | do not respond
3 | O=C(CCN1C=C/C(=C\c2sc3ccccc3[n+]2CCC(=O)NCCCCCCNc2c3c(nc4ccccc24)CCCC3)c2ccccc21)NCCCCCCNc1c2c(nc3ccccc13)CCCC2.[I-] [sensor 36] | do not respond
4 | C=C(CC)C(=O)c1ccc(OCC(=O)NCCNC(=O)CCN2C=C/C(=C\c3sc4ccccc4[n+]3CCC(=O)NCCNC(=O)COc3ccc(C(=O)C(=C)CC)c(Cl)c3Cl)c3ccccc32)c(Cl)c1Cl [sensor 140, (E)-3-(3-((2-(2-(2,3-dichloro-4-(2-methylenebutanoyl)phenoxy)acetamido)ethyl)amino)-3-oxopropyl)-2-((1-(3-((2-(2-(2,3-dichloro-4-(2-methylenebutanoyl)phenoxy)acetamido)ethyl)amino)-3-oxopropyl)quinolin-4(1H)-ylidene)methyl)benzoidithiazol-3-ium iodide] | do not respond
